The results in this text go back to patent US11298363B2, “Triazolobenzazepines as vasopressin V1a receptor antagonists” (RICHTER GEDEON NYRT., priority 2017, dated 2022).

Sequences of proteins named here, by UniProt entry; tags and fusion partners are left off.
UniProt P37288, whole entry: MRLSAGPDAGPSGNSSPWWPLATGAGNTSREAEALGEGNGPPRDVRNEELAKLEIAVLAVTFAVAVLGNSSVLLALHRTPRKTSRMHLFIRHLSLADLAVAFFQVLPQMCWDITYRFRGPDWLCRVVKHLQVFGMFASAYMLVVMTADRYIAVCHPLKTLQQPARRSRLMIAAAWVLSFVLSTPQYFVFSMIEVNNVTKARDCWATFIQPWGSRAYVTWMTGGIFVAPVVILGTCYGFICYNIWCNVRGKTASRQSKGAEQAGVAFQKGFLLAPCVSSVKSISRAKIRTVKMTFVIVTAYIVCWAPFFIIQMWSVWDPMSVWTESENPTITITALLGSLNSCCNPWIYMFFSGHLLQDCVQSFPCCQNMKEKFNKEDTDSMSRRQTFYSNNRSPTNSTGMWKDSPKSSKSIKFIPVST

The target of test [1] is T1, human vasopressin V1a receptor (Homo sapiens, UniProt P37288). The experiment in a line: Functional assay on human vasopressin V1a receptor expressing cell line (intracellular Ca2+ fluorescence). Format: cell-based. The following applies: 1321N1 cells, (Arg8)-vasopressin at EC80; read-out: IC50 (nM) on hV1a cell line. Here is the method: Functional Assay to Test Compounds on Human Vasopressin V1a Receptor Expressing Cell Line
The immortalized 1321N1 cell line (Perkin Elmer, ES-361-M400-UA) constitutively and stably expressing human vasopressin V1a receptor were used to measure the prepared compounds. The ordinary secondary messenger pathway of the measured GPCR receptor was used, the endogenous Gq-associated system.
Using 30,000 cells/plate, compounds were measured on 96-well plates. The buffer composition of the measurements was the following (expressed in mM): 140 NaCl, 5 KCl, 2 CaCl2), 2 MgCl2, 10 glucose, 10 HEPES (4-(2-hydroxyethyl)-1-piperazine-ethanesulfonic acid), 2 probenecid, pH=7.4. […] The materials to be measured were administered in 15 to 20 minutes pretreatment, at least two parallels of each compound in each concentration was measured.
Fluorescence signal was used to determine the intracellular Ca^2+ level, the reader was FlexStation II96. Cytoplasmic Ca^2+ concentrations were measured by fluorometry using the FlexStation II96 plate reader (excitation: 485 nm, emission: 525 nm). The fluorescence signal was logged in every 1.4 seconds for 1 minute. The reference compounds used were the following: (Arg^8)-vasopressin as agonist at concentration of EC80, determined for each plate, and relcovaptan as antagonist at 1 μM. […]
The total AVP concentration-response curve was recorded on each plate. […]

In test [2] the target is T1, human vasopressin V1a receptor. The experiment in a line: Human vasopressin V1a receptor binding assay. The following applies: 1321N1 cell membranes, [3H]vasopressin; read-out: Ki (nM) on hV1a cell line. The source says: Human Vasopressin V1a Receptor Binding Assay
The immortalized 1321N1 cell line (Perkin Elmer, ES-361-M400-UA) constitutively and stably expressing human vasopressin V1a receptor and vasopressin (8-L-Arginine), [Phenylalanyl-3,4,5-^3H(N)] labelled compound (Perkin Elmer Life and Analytical Sciences) as radioligand were used to determine the affinity of the prepared compounds.
Membrane-preparation: Membrane preparation of immortalized 1321N1 cells expressing the propagated human Vasopressin V1a receptor was made according to Jarvis's method (Jarvis et al., J Pharmacol Exp Ther 2004, 310:407-16). Cells were suspended in preparative buffer (50 mM Tris, 1 mM EDTA, 0.1 mM PMSF) and homogenized with glass homogenizing potter. […]
The protein content of the prepared membrane was determined according to Lowry's method using standard dilution line of bovine serum albumin (BSA) (Lowry et al., J Biol Chem 1951, 193:265-75). […]
Non-specific binding values were determined in the presence of unlabeled 1.2×10^−6 M (Arg^8)-vasopressin. […] Finally, radioactivity was measured using MicroBeta^2 Microplate Counter (Perkin Elmer). […]

On to `Clc1ccc2c(c1)CC1(Cc3nnc([C@H]4CC[C@H](Oc5ccccn5)CC4)n3-2)OCCO1` [Example 53, 8′-chloro-1′-[trans-4-(pyridin-2-yloxy)cyclohexyl]-4′H,6′H-spiro[1,3-dioxolane-2,5′-[1,2,4]triazolo[4,3-a][1]benzazepine]], for which, in test [1], the IC50 (in general, the midpoint of a concentration-inhibition curve) was found to be 0.9 nM. In addition, in test [2], the Ki (as a rule, the dissociation constant of the complex between target and ligand, obtained from inhibition or displacement) worked out at 0.3 nM.
